The values that follow come from PubChem BioAssay (Tox21).

The entries are a selection whose mix differs from that of the whole data set. Results filed as inconclusive are left out. Entries that show only a call come without a potency. The source made the active and inactive calls. Calls follow the shape of the dose curve; as a rule, active = well fitted cell-killing curve with a large enough effect in the repeat runs; inconclusive = weak or mixed curves, or effect the other way; inactive = flat fitted curve, though single readings scatter.
Potency is read from the fitted curve at half-maximal effect.

The assay is described as follows: qHTS RealTime-Glo MT Cell Viability Assay in HEK293 cells - 32 hour (AID 1224868). Also: nearly all actives have a fitted effect of over 50% in size. As to activity change, negative = cytotoxic: top concentration of the series differs between compounds. Conditions: RealTime-Glo luminescence; series mostly up to 76.8 µM. From the text: National Center for Advancing Translational Sciences [NCATS]
NIH Chemical Genomics Center [NCGC]
U.S. Environmental Protection Agency [EPA]
National Institutes of Environmental Health Sciences [NIEHS]
National Toxicology Program [NTP]
U.S. Food and Drug Administration [FDA]
Measure of cell viability is critical in the cell-base assay. Analysis of cell viability is necessary for the characterization of cell responses to cytotoxic drugs and environmental stress. A RealTime-Glo MT Cell Viability Assay to monitor cell viability in real time of continues cell culture during 40 hours of compound treatment was used to screen Tox21 10K library compounds in Hek293 cells. The RealTime-Glo MT Cell Viability Assay is a nonlytic, homogeneous, bioluminescent method to measure cell viability in real time using a simple, plate-based method. The assay involves adding NanoLuc luciferase and a cell-permeant prosubstrate to cells in culture. Viable cells reduce the proprietary prosubstrate to generate a substrate for NanoLuc luciferase. This substrate diffuses from cells into the surrounding culture medium, where it is rapidly used by the NanoLuc Enzyme to produce a luminescent signal. The signal correlates with the number of viable cells, making the assay well suited for cytotoxicity studies.
Tox21 Assay Protocol Summary:
The mixture of Hek293 cell suspension and reagents were dispensed at 600cells/6 ul/well in 1536-well tissue culture treated black solid bottom plates using a Multidrop dispenser. After the assay plates were incubated at a 37 C/5% CO2 incubator for 5 hours, 23 nL of compounds dissolved in DMSO, positive and negative controls was transferred to the assay plate by a pintool work station. The plates were incubated at 37 C for 40 hours. The luminescence intensity were measured at 0h, 8h, 16h, 24h, 32h and 40h time points using ViewLux plate reader during compound treatment.
With `CCCCCCCCCCCCCC[P+](CCCCCC)(CCCCCC)CCCCCC`, the Potency is active: 3.08 µM.

Take `CN(C(=O)Cc1ccc(Cl)c(Cl)c1)[C@H]1CC[C@@]2(CCCO2)C[C@@H]1N1CCCC1`: the Potency result was “inactive”. On the same count and under the same terms, as for `CCNC(C)Cc1ccc2c(c1)OCO2` (stereo not given), the entry is “inactive”. `O=[N+]([O-])c1ccc([N+](=O)[O-])cc1`: the Potency entry is “inactive”. Still for that read-out and setting: as for `CCOC(=O)Cl`, the entry is “inactive”. Regarding `CCC(C)(OOC(C)(C)C)OOC(C)(C)C`, the activity change, negative = cytotoxic is inactive: 10.8% [at 15.8 µM]. Turning to `O=[P+](Oc1ccccc1)Oc1ccccc1`, the Potency entry is “inactive”. Same read-out and setting: as for `CN(C(=O)Cc1ccccc1)[C@H]1CC[C@@]2(CCCO2)C[C@@H]1N1CCCC1`, the entry is “inactive”; as for `O=P(Cl)(Oc1ccccc1)Oc1ccccc1`, “inactive”; as for `CCCCO[P+](=O)OCCCC`, “inactive”. On the same count and under the same terms, with `CCOP(=S)(CC)Sc1ccccc1` (stereo not given) the entry was “inactive”. The same measure, in the same setting: as for `O=[N+]([O-])c1ccc(S(=O)(=O)O)c([N+](=O)[O-])c1`, the entry is “inactive”; as for `O=C(Cl)OCCOC(=O)Cl`, “inactive”. For `COC(=O)Cl`, the Potency entry is “inactive”. Same read-out and setting: as for `ClP(Cl)c1ccccc1`, the entry is “inactive”; as for `NC(=O)Nc1ccc([As](=O)(O)O)cc1`, “inactive”.

Consider `O=[p+]1oc2ccccc2c2ccccc21` (stereo not given), for which the Potency entry is “inactive”.

Consider `CCCCOP(OCCCC)OCCCC`, for which the Potency entry was “inactive”. Still for that read-out and setting: with `O=P(Cl)(Cl)c1ccccc1` the entry was “inactive”; with `CC(C)CCCCCCCOP(OCCCCCCCC(C)C)Oc1ccccc1`, “inactive”.

For the compound `CN(C(=O)Cc1cccc2occc12)[C@H]1CC[C@@]2(CCCO2)C[C@@H]1N1CCCC1`, the Potency entry was “inactive”. For the compound `Cc1cc([N+](=O)[O-])c(O)c([N+](=O)[O-])c1`, the Potency entry was “inactive”.

For `O=C(Cl)Oc1ccccc1`, the Potency result is “inactive”. As to `COP(=S)(Cl)OC`, the Potency entry was “inactive”.

As to `CCCCC(CC)CO[P+](=O)OCC(CC)CCCC` (stereo not given), the Potency result was “inactive”.
